This is an account of results in patent US20100260680A1, “NOVEL BONE MASS INCREASING AGENT” (ORIENTAL YEAST CO., LTD., priority 2007, published 2010).

In the assay the test system is Human mesenchymal stem cells. Briefly: ALP activity determination in human mesenchymal stem cells. It is filed as cell-based. To be noted: 10 nM; differentiation medium; Day 5. As for the experimental part:
Human mesenchymal stem cells were seeded on a 96-well plate (1×10^3 cells/well) (Nunc) and a 48-well plate (2.4×10^3 cells/well) (IWAKI). After 24 hours, the culture supernatant was removed from each plate and an osteoblast differentiation induction medium (Lonza) was introduced thereonto. The medium was replaced with new medium every 3 or 4 days.
At such time, peptide D was added at a concentration of 100 μM (group treated with peptide D). As a negative control, the control peptide was added at the same concentration.
Seven days after differentiation, the culture supernatant was removed from each plate and the cells were fixed with an acetone/ethanol solution. The ALP activity was determined using p-nitrophenyl phosphate as a substrate. Specifically, a carbonate buffer (5 mM MgCl2, 50 mM NaHCO3) containing p-nitrophenyl phosphate (Nacalai) (1 mg/mL) was added to each well (100 μL/well), followed by incubation at 37° C. Then, the OD value at 405 nm was determined with the use of a microplate reader (BMG Labtech) for each well.
Human mesenchymal stem cells (hMSC; Lonza) were seeded on a 96-well plate (Nunc) (2×10^3 cells/well). After cell adhesion had taken place, the medium was replaced with a differentiation medium prepared by adding 100 nM dexamethasone (SIGMA), 10 mM BGP(SIGMA), and 50 μg/mL ascorbic acid to a dedicated maintenance medium (Lonza). […]

B1: GST fusion peptide D: fusion protein of peptide D and GST (SEQ ID NO: 55), approximately 27 kDa (protein)
chain: MSPILGYWKIKGLVQPTRLLLEYLEEKYEEHLYERDEGDKWRNKKFELGLEFPNLPYYIDGDVKLTQSMAIIRYIADKHNMLGGCPKERAEISMLEGAVLDIRYGVSRIAYSKDFETLKVDFLSKLPEMLKMFEDRLCHKTYLNGDHVTHPDFMLYDALDVVLYMDPMCLDAFPKLVCFKKRIEAIPQIDKYLKSSKYIAWPLQGWQATFGGGDHPPKSDLVPRGSGGGGSYCWSQYLCY
On to B1, for which the ALP activity entry is “significant increase in ALP activity”.
